Earlier results on one substance are cited in patent US12343380B2, “Expansion of TILs utilizing AKT pathways inhibitors” (Iovance Biotherapeutics, Inc., priority 2018, dated 2025).

For the data set the following is noted: 1 mg vial, CellGenix lot 10200121 COA.

As for “rhIL-2: purified, lyophilized recombinant human interleukin-2; CellGenix lot 10200121”, the specific activity is recorded as 25×10^6 IU/mg.
